Measurements from PMC4947123.

Assays:
[1] = molecular target: endogenous Fus (mouse (endogenous in N2A, NSC-34, primary mouse cortical neurons)) (UniProt P56959); test: co-IP; total cell lysates treated with RNAse A for 30 min at 4 °C or not, IP with anti-Fus antibodies or IgG, immunoblot, bands quantified; cell line not told for this panel
[2] = molecular target: Recombinant FUS (Origene) (UniProt P35637); test: co-IP; recombinant FUS and FMRP mixed in 10 % glycerol, 0.5 % NP40, 100 mM glycine, 25 mM Tris-HCl pH 7.4, 1 h with protein A agarose beads pre-incubated with rabbit anti-FUS antibody; immunoblot; in Fig. 6g total RNA of HEK293 cells added at 0.1 to 62.5 ng/μl, bands quantified

percent of RNase negative condition (after RNase treatment of the lysate) [1] [%] | percent of FUS-FMRP binding at 0 ng/μl RNA (with 0.1 ng/μl RNA) [2] [%] | percent of FUS-FMRP binding at 0 ng/μl RNA (with 0.5 ng/μl RNA) [2] [%] | percent of FUS-FMRP binding at 0 ng/μl RNA (with 2.5 ng/μl RNA) [2] [%] | percent of FUS-FMRP binding at 0 ng/μl RNA (with 12.5 ng/μl RNA) [2] [%] | percent of FUS-FMRP binding at 0 ng/μl RNA (with 62.5 ng/μl RNA) [2] [%] | Substance
441 | – | – | – | – | – | fragile X mental retardation protein (FMRP), endogenous (from UniProt P35922 1-614) (natural protein)
– | 70.4 | 56.5 | 23.3 | 11.6 | 4.6 | Recombinant FMRP (Abnova) (from UniProt Q06787 1-632) (natural protein; other documents disagree on this pair)
